The data set is described as follows: Solubility (Method B): solvent added in portions until a clear solution is obtained. It is filed as physicochemical. The following applies: water solubility versus free acid. The method, then: Method B-Solubility Measurement of the water solubility of the salts of this invention is accomplished by using methods well known to those skilled in the art. Specifically, to a weighed amount of DSB (+)-[…], DSB choline […], DSB diethanolamine […], or DSB diethylamine […], a solvent is added in small portions until a clear solution is obtained. The total volume of the solution is measured. The solubility of the particular DSB salt, in mg/mL, is calculated by dividing the weight of the salt (in mg), by the volume of the solution (in mL).

Consider bis-choline salt of DSB [DSB-2 Choline], for which the “Increase in solubility as compared to the DSB free acid” value is given as “greater than 16 fold”.

The values are drawn from patent publication US20110224182A1, “SALTS OF (3-0-(3',3'-[…]) BETULINIC ACID AND SOLID STATE FORMS THEREOF” (Myriad Pharmaceuticals, Incorporated, priority 2007, published 2011).
